Reference: ChEMBL document CHEMBL4346735, “Discovery and pharmacological evaluation of indole derivatives as potent and selective RORγt inverse agonist for multiple autoimmune conditions” (Bioorg Med Chem Lett, 2019)
pIC50: −log10 of the molar value.

By UniProt entry, the sequences of proteins in these tests, tags left out. Where a name states a change or a piece, a line headed by the entry shows the natural chain unless it says otherwise.
UniProt P51449: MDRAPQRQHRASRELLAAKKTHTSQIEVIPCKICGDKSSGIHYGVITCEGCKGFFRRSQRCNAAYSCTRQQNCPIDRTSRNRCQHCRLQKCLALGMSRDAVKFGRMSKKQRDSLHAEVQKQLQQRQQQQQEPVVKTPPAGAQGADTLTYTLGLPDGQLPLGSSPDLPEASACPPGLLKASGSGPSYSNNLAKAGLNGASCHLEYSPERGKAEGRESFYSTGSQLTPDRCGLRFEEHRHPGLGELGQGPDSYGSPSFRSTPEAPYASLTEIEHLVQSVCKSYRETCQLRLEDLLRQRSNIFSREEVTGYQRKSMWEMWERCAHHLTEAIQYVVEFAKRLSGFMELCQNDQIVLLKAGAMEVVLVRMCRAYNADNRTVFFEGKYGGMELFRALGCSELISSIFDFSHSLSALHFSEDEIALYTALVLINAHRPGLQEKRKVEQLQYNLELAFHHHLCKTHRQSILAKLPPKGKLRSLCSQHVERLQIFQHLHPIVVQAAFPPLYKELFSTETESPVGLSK

Legend:
[1] = biological target: T1, Nuclear receptor ROR-gamma (Homo sapiens, UniProt P51449); experiment: Transactivation of recombinant GAL4-DBD fused RORgammat LBD (unknown origin) expressed in HEK293T cells incubated for 18 to 24 hrs by dual-Glo luciferase assay; assay type: cell-based
[2] = biological target: T1, Nuclear receptor ROR-gamma; experiment: Inverse agonist activity at GST-tagged RORgammat LBD (unknown origin) using fluorescein-D22 co-activator peptide as substrate incubated for 1 hr by TR-FRET assay

| SMILES | pIC50 [1] | pIC50 [2] |
| --- | --- | --- |
| O=C(O)c1ccc(-n2cc(C(=O)c3c(Cl)cccc3C(F)(F)F)c3ccccc32)cc1 | 7.43 |  |
| O=C(O)c1ccc(-n2cc(C(=O)c3c(Cl)cccc3C(F)(F)F)c3cccc(F)c32)cc1 | 8.00 | 8.70 |
